{"sequences": {"note": "Protein sequences, listed by entry. Tags and fused reporters are not part of them. Lines headed by an entry give the natural chain unless they say otherwise; changes in a name come on top.", "UniProt P00581": "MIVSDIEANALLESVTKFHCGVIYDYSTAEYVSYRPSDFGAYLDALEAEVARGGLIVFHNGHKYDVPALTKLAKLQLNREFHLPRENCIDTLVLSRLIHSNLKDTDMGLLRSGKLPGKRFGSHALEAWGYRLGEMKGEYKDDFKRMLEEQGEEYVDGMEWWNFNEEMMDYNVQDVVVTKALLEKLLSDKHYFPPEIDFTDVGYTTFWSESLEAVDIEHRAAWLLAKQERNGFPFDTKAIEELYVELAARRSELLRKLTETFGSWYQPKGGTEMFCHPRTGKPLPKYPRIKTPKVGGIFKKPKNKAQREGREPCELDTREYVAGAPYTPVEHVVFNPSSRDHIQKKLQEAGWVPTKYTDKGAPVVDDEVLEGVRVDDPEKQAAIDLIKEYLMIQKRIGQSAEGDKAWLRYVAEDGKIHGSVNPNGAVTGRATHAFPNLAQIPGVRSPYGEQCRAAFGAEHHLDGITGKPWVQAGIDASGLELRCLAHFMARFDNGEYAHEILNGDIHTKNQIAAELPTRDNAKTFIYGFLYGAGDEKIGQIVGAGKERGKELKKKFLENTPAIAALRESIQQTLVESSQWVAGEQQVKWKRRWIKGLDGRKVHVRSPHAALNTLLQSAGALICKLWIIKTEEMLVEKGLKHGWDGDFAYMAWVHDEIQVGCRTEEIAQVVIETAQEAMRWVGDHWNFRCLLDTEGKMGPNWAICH"}, "source": "paper PMC3997047", "origin": "cited, not measured here", "biological_target": "T7 gene 5 protein (DNA polymerase) (Escherichia phage T7) (UniProt P00581)", "data": [{"substance": "Thioredoxin (from UniProt P0AA25)", "values": [{"measurement": "Kd", "result": 5, "unit": "nM"}]}]}
